# Experimental data published in patent US20090221590A1, “SALT OF CD 80 ANTAGONIST” (MEDIGENE LIMITED, priority 2006, published 2009).
# Assay: Solubility Assay (saturation, shaker 24 hours, supernatant analysed by HPLC)
# Conditions: for Solubility (mg/ml) in ethanol: solvent ethanol; for Solubility (mg/ml) in ethanol / Solubility (mg/ml) in water: 25 deg C./60% relative humidity, 24 hours; for Solubility (mg/ml) in water: solvent water
substance,measurement,setting,value
Lysine,Solubility (mg/ml) in ethanol,,<5 mg/mL
same,Solubility (mg/ml) in water,,<5 mg/mL
"2-[4-(2,2-Difluoro-ethylcarbamoyl)-phenyl]-6-fluoro-2H-pyrazolo[4,3-c]cinnolin-3-olate (2-hydroxy-ethyl)-trimethyl-ammonium [Choline]",Solubility (mg/ml) in ethanol,,>21 mg/mL
same,Solubility (mg/ml) in water,,>51 mg/mL
same,aqueous solubility (in words),"water, qualitative statement",good aqueous solubility
